Target: GSPT1 (Homo sapiens, UniProt P15170+Q96SW2)
Assay: GSPT1 HiBit degradation assay
Conditions: read-out: GSPT1 DC50; Table 3A; HEK293 LgBiT cells expressing GSPT1_HiBiT, luminescence after 6 hours
Text: Promega developed a HEK293 cell line that constitutively expresses LgBiT protein and GSPT1_HiBiT fusion protein. When both proteins are present, the HiBiT portion of the fusion protein combines with LgBiT protein to form a functional luciferase enzyme. Endurazine, a cell permeable small molecule, is converted by cellular esterases into furimazine, which the luciferase enzyme uses as a substrate to generate luminescence. When GSPT1 is degraded, the HiBit is also degraded. This prevents formation of fully functional luciferase, leading to a loss in luminescence. GSPT1 degradation therefore correlates with a decrease in luminescence and can be measured continuously over time. The concentration of compound at which 50% GSPT1 degradation occurs (DC50) was calculated using this system.
• HEK293 LgBiT Cell line (Promega Custom) • Endurazine Substrate (Promega Cat. #N2570) • DMEM (Gibco Cat. #11995) • Penicillin/Streptomycin (Gibco Cat. #15140-122) • Heat Inactivated Fetal Bovine Serum (Gibco Cat. #A38400-01) • Hygromycin B (Gibco Cat. #10-687-010) • 384 Well TC Treated White Microplate (Perkin Elmer Cat. #6007680)
HEK293 LgBiT cells were cultured in DMEM Media supplemented with 10% FBS, 5% Pen/Strep, 200 μg/ml hygromycin and stored in an incubator set at 37° C. and 5% CO2. […] After 6 hours the plate was read on a Perkin Elmer MultiMode Plate Reader Envision 2105 to measure luminescence signal.

Chains of the proteins cited; added tags and fusions are not shown.
UniProt P15170, whole entry: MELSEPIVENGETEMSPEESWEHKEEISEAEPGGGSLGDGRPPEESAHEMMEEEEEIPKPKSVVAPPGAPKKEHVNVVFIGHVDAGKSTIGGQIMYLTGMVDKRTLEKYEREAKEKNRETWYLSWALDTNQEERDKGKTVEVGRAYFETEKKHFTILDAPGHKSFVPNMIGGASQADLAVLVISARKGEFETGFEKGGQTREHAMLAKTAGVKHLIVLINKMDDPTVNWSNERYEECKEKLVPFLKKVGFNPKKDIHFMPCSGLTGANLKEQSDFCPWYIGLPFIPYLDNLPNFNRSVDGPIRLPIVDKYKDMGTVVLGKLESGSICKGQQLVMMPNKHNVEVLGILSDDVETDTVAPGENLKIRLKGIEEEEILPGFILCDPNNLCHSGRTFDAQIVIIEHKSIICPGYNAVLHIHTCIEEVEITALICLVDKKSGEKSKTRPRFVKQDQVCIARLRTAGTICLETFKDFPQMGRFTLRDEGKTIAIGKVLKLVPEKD
UniProt Q96SW2, whole entry: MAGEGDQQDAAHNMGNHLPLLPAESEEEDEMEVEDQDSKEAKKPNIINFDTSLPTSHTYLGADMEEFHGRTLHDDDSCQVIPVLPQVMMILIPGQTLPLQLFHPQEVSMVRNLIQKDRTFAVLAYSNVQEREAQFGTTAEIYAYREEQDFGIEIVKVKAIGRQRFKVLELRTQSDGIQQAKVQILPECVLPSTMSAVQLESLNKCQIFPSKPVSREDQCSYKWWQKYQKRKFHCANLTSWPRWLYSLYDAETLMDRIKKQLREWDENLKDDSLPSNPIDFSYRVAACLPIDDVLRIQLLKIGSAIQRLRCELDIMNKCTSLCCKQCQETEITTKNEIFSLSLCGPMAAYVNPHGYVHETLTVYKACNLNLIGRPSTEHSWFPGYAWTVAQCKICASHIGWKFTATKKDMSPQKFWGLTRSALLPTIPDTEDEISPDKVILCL
UniProt Q16531, whole entry partner: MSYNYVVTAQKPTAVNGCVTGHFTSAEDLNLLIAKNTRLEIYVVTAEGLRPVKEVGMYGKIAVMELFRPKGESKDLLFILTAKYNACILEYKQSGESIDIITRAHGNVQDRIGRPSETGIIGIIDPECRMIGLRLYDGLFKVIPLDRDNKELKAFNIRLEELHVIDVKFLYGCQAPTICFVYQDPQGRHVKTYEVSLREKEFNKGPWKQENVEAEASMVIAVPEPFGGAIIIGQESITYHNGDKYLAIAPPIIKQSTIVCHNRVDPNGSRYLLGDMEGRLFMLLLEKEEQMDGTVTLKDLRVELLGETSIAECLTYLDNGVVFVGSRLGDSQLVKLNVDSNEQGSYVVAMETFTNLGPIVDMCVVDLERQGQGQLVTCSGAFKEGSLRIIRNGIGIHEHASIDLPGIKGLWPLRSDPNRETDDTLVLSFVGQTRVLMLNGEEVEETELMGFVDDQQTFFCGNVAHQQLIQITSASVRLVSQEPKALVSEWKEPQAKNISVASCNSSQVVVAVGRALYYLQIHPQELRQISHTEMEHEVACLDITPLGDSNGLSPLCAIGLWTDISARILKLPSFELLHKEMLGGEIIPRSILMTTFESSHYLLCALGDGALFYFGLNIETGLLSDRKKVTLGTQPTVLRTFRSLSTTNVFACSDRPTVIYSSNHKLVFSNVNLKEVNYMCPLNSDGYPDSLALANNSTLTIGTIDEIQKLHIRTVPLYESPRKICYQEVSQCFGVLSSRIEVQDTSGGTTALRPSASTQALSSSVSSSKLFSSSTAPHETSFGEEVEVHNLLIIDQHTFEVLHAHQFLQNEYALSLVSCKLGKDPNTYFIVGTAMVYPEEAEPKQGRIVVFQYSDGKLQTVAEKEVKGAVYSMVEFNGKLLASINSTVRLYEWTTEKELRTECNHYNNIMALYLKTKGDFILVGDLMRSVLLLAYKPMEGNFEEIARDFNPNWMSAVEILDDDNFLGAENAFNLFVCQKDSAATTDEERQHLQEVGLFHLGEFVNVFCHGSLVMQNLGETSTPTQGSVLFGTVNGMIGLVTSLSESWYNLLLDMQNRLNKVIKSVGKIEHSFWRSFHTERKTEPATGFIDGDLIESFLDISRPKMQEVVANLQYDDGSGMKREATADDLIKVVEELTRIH

Compound `CN(CCOCCOCCOCCOCCOCCOCCOCCCCCc1cc(Cl)cc(NC(=O)NCc2ccc3c(c2)CN(C2CCC(=O)NC2=O)C3=O)c1)C(=O)CC[C@H]1CC[C@H]2C3CC[C@H]4CC(=O)CC[C@]4(C)[C@H]3CC[C@]12C` (stereo partly shown) has a DC50 of less than 250 nM.
